The target in assay [1] is T1, porcine pancreatic α-amylase (EC 3.2.1.1, type VI) (Sus scrofa, UniProt P00690).
T1 construct: purchased Sigma-Aldrich (St. Louis, MO, USA) type VI (catalogue number not given)
T1 sequence (P00690 16-511): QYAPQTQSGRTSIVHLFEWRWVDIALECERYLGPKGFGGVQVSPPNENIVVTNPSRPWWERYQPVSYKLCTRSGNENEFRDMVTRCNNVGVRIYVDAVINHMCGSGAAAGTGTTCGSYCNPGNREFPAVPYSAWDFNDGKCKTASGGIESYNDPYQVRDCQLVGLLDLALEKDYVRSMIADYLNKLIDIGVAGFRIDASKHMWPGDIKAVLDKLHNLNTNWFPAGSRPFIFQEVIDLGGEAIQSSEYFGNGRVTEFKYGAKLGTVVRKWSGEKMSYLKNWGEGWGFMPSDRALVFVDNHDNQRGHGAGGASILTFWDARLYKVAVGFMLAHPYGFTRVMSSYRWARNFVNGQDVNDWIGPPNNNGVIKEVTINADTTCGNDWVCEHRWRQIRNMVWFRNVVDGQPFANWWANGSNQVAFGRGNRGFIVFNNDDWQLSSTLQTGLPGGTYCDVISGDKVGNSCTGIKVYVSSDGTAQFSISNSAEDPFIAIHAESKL
The assay can be described thus: α-Amylase inhibition. The assay is classed as biochemical. The settings on record: means ± SE. The method, then: The inhibitory activity of each sample against α-amylase was measured as described previously. Sample (40 μL) dissolved in sodium phosphate buffer (SPB, 20 mM and pH 6.9) with 6 mM NaCl was added to 1.0 U/ml α-amylase (200 μL) in SPB and incubated at 30 °C for 10 min. After 10 min, 400 μL of 0.3% starch solution in SPB was added to each tube. […] Each tube was incubated in boiling water for 20 min and cooled to 27 °C. The reaction was diluted by adding 10 ml distilled water and absorbance at 540 nm was measured using a UV-Vis spectrophotometer. The control contained 20 mM SPB (pH 6.9, 200 μL) instead of α-amylase.

Assay [2] deals with α-glucosidase (EC 3.2.1.20). The settings on record: ratio of IC50 values versus acarbose.

The IC50 is the midpoint of a concentration-inhibition curve. Higher therefore signals weaker potency.

`CC(=O)C=CC1C(C)=CCCC1(C)C` (centres unmarked) [4-(2,6,6-trimethyl-2-cyclohexenyl)-3-buten-2-one] had an IC50 in assay [1] of 453 µM.

Regarding `CC(=O)C=CC1=C(C)CCCC1(C)C` [4-(2,6,6-trimethyl-1-cyclohexenyl)-3-buten-2-one], the “times more active than acarbose against α-glucosidase” value in assay [2] was 2.40 times.

The values are drawn from PMC5374635, “Inhibitory Potential of Constituents from Osmanthus fragrans and Structural Analogues Against Advanced Glycation End Products, α-Amylase, α-Glucosidase, and Oxidative Stress” (Scientific Reports, 2017).
